{"sequences": {"note": "Sequences of proteins named here, by UniProt entry; tags and fusion partners are left off. A change or cut given only in a name is not applied to a line headed by its entry.", "UniProt O15379": "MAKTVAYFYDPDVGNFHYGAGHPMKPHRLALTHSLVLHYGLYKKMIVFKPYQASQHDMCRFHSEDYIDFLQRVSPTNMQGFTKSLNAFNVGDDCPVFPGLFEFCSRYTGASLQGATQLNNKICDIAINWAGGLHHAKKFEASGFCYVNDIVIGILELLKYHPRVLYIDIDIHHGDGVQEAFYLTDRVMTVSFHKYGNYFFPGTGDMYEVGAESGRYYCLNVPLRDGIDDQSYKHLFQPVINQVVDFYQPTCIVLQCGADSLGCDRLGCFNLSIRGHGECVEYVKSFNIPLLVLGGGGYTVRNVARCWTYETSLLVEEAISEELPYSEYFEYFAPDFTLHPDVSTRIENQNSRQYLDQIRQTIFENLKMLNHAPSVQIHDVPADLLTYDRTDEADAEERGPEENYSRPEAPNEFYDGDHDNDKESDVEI"}, "source": "ChEMBL document CHEMBL5365457", "about": "“Selective HDAC3 Inhibitors with Potent In Vivo Antitumor Efficacy against Triple-Negative Breast Cancer” (J Med Chem, 2023)", "key": {"Homo sapiens [1]": {"species": "Homo sapiens", "assay": "Selectivity ratio of IC50 for inhibition of human recombinant HDAC1 to IC50 inhibition of human recombinant HDAC3"}, "Homo sapiens [2]": {"species": "Homo sapiens", "assay": "Selectivity ratio of IC50 for inhibition of human recombinant HDAC1 to IC50 inhibition of human recombinant HDAC2"}, "Histone deacetylase 3 [3]": {"biological_target": "T1, Histone deacetylase 3 (Homo sapiens, UniProt O15379)", "assay": "Potency index, ratio of BG-45 IC50 to test compound IC50 for inhibition of HDAC3 (unknown origin)"}, "Histone deacetylase 3 [4]": {"biological_target": "T1, Histone deacetylase 3", "assay": "Potency index, ratio of PT3 IC50 to test compound IC50 for inhibition of HDAC3 (unknown origin)"}}, "data": [{"smiles": "CCCNNC(=O)c1cnc(NCc2ccc(OC)cc2)cn1", "values": [{"measurement": "Ratio IC50", "setting": "Homo sapiens [1]", "result": 121}, {"measurement": "Ratio IC50", "setting": "Homo sapiens [2]", "result": 121}, {"measurement": "Ratio IC50", "setting": "Histone deacetylase 3 [3]", "result": 17.5}, {"measurement": "Ratio IC50", "setting": "Histone deacetylase 3 [4]", "result": 17.5}]}]}
